Experimental data: article doi:10.1101/808618v2

Experiments:
Assay in all cases: purified protein
NC(=O)CC[C@H](N)C(=O)O = conditions: pH 8.5, 25 °C, 20 mM MgCl2, XMP 0.15 mM, ATP 2 mM fixed
[1] = test system: O=c1[nH]c(=O)c2ncn([C@@H]3O[C@H](COP(=O)(O)O)[C@@H](O)[C@H]3O)c2[nH]1; conditions: pH 8.5, 25 °C
[2] = test system: Nc1ncnc2c1ncn2[C@@H]1O[C@H](COP(=O)(O)OP(=O)(O)OP(=O)(O)O)[C@@H](O)[C@H]1O; conditions: pH 8.5, 25 °C, 20 mM MgCl2, XMP 0.15 mM
[3] = 20 mM MgCl2, ATP 2 mM, Gln 15 mM fixed
[4] = 20 mM MgCl2, ATP 2 mM, Gln 40 mM fixed
[5] = 20 mM MgCl2, ATP 5 mM, Gln 5 mM fixed

PfGMPS (Plasmodium falciparum 3D7; D412A)
Km (NC(=O)CC[C@H](N)C(=O)O): 2610 ± 220 µM | kcat (NC(=O)CC[C@H](N)C(=O)O): 0.657 ± 0.004 s⁻¹

PfGMPS (Plasmodium falciparum 3D7; D413A)
Km [1, 3]: 20 ± 2.9 µM | kcat [1, 3]: 0.532 ± 0.011 s⁻¹

PfGMPS (Plasmodium falciparum 3D7; K24L)
Km (NC(=O)CC[C@H](N)C(=O)O): 1750 ± 60 µM | kcat (NC(=O)CC[C@H](N)C(=O)O): 0.296 ± 0.007 s⁻¹ | Km ([2]; Gln 40 mM fixed): 67 ± 3 µM | kcat ([2]; Gln 40 mM fixed): 0.340 ± 0.004 s⁻¹ | Km [1, 4]: 20.6 ± 1 µM | kcat [1, 4]: 0.327 ± 0.005 s⁻¹

PfGMPS (Plasmodium falciparum 3D7; K415L)
Km ([2]; Gln 5 mM fixed): 500 ± 11 µM | kcat ([2]; Gln 5 mM fixed): 0.733 ± 0.018 s⁻¹ | Km [1, 5]: 14.4 ± 1.5 µM | kcat [1, 5]: 0.744 ± 0.059 s⁻¹
